Reference: patent EP4088722A1, “PHARMACEUTICAL COMPOSITIONS, USES THEREOF AND METHODS FOR TREATMENT OF GENETIC DISEASES CAUSED BY INTRONIC SPLICE-ACCEPTOR SITE MUTATIONS” (priority 2021, dated 2022)

Columns and labels:
[1] = tested on: TPP1 minigene with the mutation c.509-1G>C; experiment: TPP1 minigene luciferase splicing assay in HEK293T cells; format: cell-based, human; conditions: 24 h
Source text: Due to the encouraging data obtained with our AGU splice-site variant, we constructed a TPP1 luciferase minigene that contains exons 5, 6 and 7 together with the introns 5 and 6 (Figure 11a) and the firefly luciferase coding region. The splice-site variant -1G>C was introduced at the end of intron 5. Upon exclusion of exon 6, which is the most likely alteration, no luciferase activity is observed due to the frameshift and premature stop codon. Other altered splicing products are possible, but they would not result in a luciferase signal. If the splicing can be corrected, and exon 6 is included, luciferase activity can be measured (Figure 11a).

[2] = tested on: AGA minigene construct without luciferase (c.128-2A>G); format: cell-based, human; conditions: 25 µM luteolin or 50 µM kinetin, 24 h, qPCR-based minigene assay
Protocol: For qPCRs, total RNA was isolated with peqGOLD TriFast™ (VWR, Darmstadt, Germany) and included a DNAse step. Total RNA (1-3 µg) were reverse transcribed with 150 fmol oligo(dT) primers and M-MuLV reverse transcriptase (NEB, Frankfurt, Germany) in a total volume of 45 µL. Real-time quantitative PCRs were performed using the CFX Connect Real-Time PCR Detection System (Bio-Rad, Munich, Germany). Annealing temperature was 60°C for all primers. The reactions were done as duplicates with 0.8 µL cDNA in a total volume of 10 µL using iTaq-TMUniversal SYBR Green Supermix (Bio-Rad). PCR products were quantified with the ACt-method. For normalization, the mean of the reference genes B2M, Rpl13a, Ywhaz and TBP was used. Table 2. Sequences of primers used for the quantitative real-time PCR.
RNA was isolated from the cells, reverse transcribed to cDNA, and a qRT-PCR with a fwd primer residing in exon 2 and a reverse primer in the plasmid vector (3'-untranslated region of the resulting RNA) was performed. Thus, amplification of a PCR product of 271 bp is only observed when both exons 2 and 3 are present in the mRNA.

Row | Structure (SMILES) | luciferase signal ([1]; 7.5 mM) | luciferase signal ([1]; 25 µM) | amount of AGA mRNA products containing exon 2 [2]
1 | Cn1c(=O)c2c(ncn2C)n(C)c1=O [caffeine, 1,3,7-trimethylxanthine] | Significant increase of luciferase signal |  | 
2 | CC(=O)CCCCn1c(=O)c2c(ncn2C)n(C)c1=O [pentoxifylline, 3,7-dimethyl-1-(5-oxohexyl) xanthine] | Significant increase of luciferase signal |  | 
3 | O=c1cc(-c2ccc(O)c(O)c2)oc2cc(O)cc(O)c12 [luteolin, 3',4',5,7-tetrahydroxyflavone] |  | Significant increase of luciferase signal | increased the amount of AGA mRNA products containing exon 2
4 | Cn1c(=O)c2[nH]cnc2n(C)c1=O [theophylline, 1,3-dimethylxanthine] | Significant increase of luciferase signal |  | 
